# Test results as given in publication PMC3866116 (PLoS ONE, 2013).
# Assays:
# [1] = tested on: HCV subgenomic replicon RNA of genotype 1b strain Con1; experiment: Drug combination analysis (CalcuSyn) in Con1 LUN Sb #26 replicon cells; format: cell-based, hepatitis C virus; details: 72 h
# Description: The replicon cells were seeded at 2×10^4 cells per well in a 48-well plate 24 h before treatment. […] The resulting cells were harvested 72 h post-treatment and lysed with cell culture lysis reagent (Promega, Madison, WI). The luciferase activity of each cell lysate was estimated using a luciferase assay system (Promega). The resulting luminescence was detected by a Luminescencer-JNR AB-2100 (ATTO, Tokyo, Japan).
# The effects of drug-drug combinations were evaluated by using the Con1 LUN Sb #26 replicon cells, and were analyzed by using the computer software CalcuSyn (Biosoft, Cambridge, United Kingdom). Dose inhibition curves of two different drugs were plotted with each other. In each drug combination, EC90 values of several combinations of two different drugs were plotted as the fractional concentration (FC) of both drugs on the x and y-axes. Additivity indicates the line linked between 1.0 FC value points of both drugs in the absence of each other. Synergy and antagonism are indicated by values plotted under and above, respectively, an additivity line. The explanatory diagram of isobologram is shown in a right end of lower panels of Figure 5A. Combination indexes (CIs) were calculated at the EC50, EC75, and EC90 by using CalcuSyn. A CI value of less than 0.9 indicates synergy. A CI value ranging from 0.9 to 1.1 indicates additivity. A CI value of more than 1.1 indicates antagonism. […]
# ISRE-promoter activity = experiment: ISRE reporter assay in Huh7 OK1 cells; format: cell-based; details: 48 h of treatment, interferon alpha 2b as positive control
# Description: Huh7 OK1 cells were transfected with pEF.Rluc.HCV.IRES.Feo or pEF.Rluc.EMCV.IRES.Feo [39]. These transfected cells were seeded at 2×10^4 cells per well in a 48-well plate 24 h before treatment, treated with DMSO or compound 10, and then harvested at 72 h post-treatment. The firefly luciferase activities were measured with a luciferase assay system (Promega). The total protein concentration was measured using the BCA Protein Assay Reagent Kit (Thermo Scientific, Rockford, IL, USA) to normalize luciferase activity. To evaluate the interferon response, Huh7OK1 cells were seeded on a 48 well plate at a density of 2×10^4 cells per well, and transfected with pISRE-TA-Luc (Takara bio, Shiga, Japan) and phRG-TK (Promega). These transfected cells were incubated in the presence of compounds, IFN-α 2b, or DMSO, and then harvested at 48 h post-treatment. The firefly luciferase and Renilla luciferase activities were quantified by using Dual luciferase reporter assay system (Promega).
substance,measurement,setting,value
interferon alpha 2b: Interferon alfa-2b (IFN-α 2b) obtained from MSD; positive control and combination partner,"effect of combination with compound 10 on inhibition of HCV replication (combination index at EC50, EC75, EC90)","[1]; CI <0.9 synergy, 0.9 to 1.1 additivity, >1.1 antagonism",antagonistic to synergistic effect
same,isobologram: location of calculated EC90 plots for combination with compound 10,"[1]; under additive line = synergy, above = antagonism",under the additive line
same,effect on ISRE-promoter activities,ISRE-promoter activity,significantly enhanced
